Measured values taken from ChEMBL document CHEMBL4706517, “Discovery of novel berberine derivatives with balanced cholinesterase and prolyl oligopeptidase inhibition profile” (Eur J Med Chem, 2020).

Protein sequences, listed by entry. Tags and fused reporters are not part of them. Lines headed by an entry give the natural chain unless they say otherwise; changes in a name come on top.
UniProt P22303: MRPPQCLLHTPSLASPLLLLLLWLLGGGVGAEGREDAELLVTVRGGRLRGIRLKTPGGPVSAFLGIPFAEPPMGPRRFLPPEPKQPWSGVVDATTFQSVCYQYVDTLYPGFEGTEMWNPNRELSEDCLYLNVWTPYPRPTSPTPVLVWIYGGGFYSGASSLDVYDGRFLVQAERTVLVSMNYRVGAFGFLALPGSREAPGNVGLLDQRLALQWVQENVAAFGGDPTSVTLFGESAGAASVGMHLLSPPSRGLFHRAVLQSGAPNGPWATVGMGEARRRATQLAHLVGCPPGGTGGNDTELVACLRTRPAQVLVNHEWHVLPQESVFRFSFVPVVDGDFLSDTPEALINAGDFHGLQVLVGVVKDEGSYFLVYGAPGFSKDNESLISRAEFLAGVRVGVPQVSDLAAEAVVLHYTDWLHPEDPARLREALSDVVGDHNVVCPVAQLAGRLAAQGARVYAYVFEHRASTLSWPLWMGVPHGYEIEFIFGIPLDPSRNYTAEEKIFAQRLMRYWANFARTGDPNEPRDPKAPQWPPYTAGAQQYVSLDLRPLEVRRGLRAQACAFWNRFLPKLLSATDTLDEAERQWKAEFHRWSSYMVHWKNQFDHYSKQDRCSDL

Target: Acetylcholinesterase (Homo sapiens, UniProt P22303)
Assay: Inhibition of recombinant human acetylcholinesterase using acetylthiocholine iodide as substrate preincubated with enzyme for 5 mins followed by substrate addition and measured at 2 mins interval by Ellman's method

`COc1ccc2cc3[n+](cc2c1OC)CCc1cc2c(cc1-3)OCO2.[Cl-]` [BERBERINE CHLORIDE] was tested, and the IC50 was 17.4 µM.
